The text below walks through data of patent US20150272934A1, “USE OF CSE INHIBITORS FOR THE TREATMENT OF CUTANEOUS INJURIES OR CONDITIONS AND SLEEP-RELATED BREATHING DISORDERS” (SOVA PHARMACEUTICALS, INC., priority 2012, published 2015).

By UniProt entry, the sequences of proteins in these tests, tags left out.
UniProt P32929, whole entry, looked up: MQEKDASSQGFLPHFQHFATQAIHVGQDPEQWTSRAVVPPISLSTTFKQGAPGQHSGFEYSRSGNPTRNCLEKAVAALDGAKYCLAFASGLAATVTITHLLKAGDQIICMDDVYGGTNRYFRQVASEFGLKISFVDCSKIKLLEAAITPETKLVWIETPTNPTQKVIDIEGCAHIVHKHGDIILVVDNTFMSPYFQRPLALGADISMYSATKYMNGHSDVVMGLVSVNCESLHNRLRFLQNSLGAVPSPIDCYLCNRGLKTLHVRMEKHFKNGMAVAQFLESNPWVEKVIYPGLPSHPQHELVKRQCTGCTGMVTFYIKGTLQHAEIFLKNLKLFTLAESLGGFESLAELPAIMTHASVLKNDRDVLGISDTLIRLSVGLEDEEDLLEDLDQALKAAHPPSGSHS

Each structure is given as a SMILES string.

For this assay, the target named is human, mouse or rat recombinant CSE (UniProt P32929). In words: CSE In Vitro Assay. Conditions: recombinant CSE 20 ug/ml, 50 uM PLP, DL-homocysteine substrate, 3 hours 37° C.; species of enzyme not given.

Turning to `NN(CCCc1nnn[nH]1)c1nnn[nH]1`, the IC50 (usually the concentration needed to halve the response being measured) was 10 to 100 µM.
